In US20240173419A1, “CDK2 DEGRADERS AND USES THEREOF” (Kymera Therapeutics, Inc., priority 2022, published 2024):

Target: CDK2 (Homo sapiens, UniProt P24941)
Assay: CDK2 degradation in MKN1 cells (AlphaLISA)
Conditions: for CDK2 degradation 14 h: Average Dmax %: 14 h incubation; for DC50: read-out: CDK2 degradation 14 h: Mean external-Abs DC50, 14 h incubation
Method: Degradation of CDK2 in MKN1 cells was measured using AlphaLISA technology (PerkinElmer ALSU-TCDK2-A10K). MKN1 cells were maintained in RPMI1640 medium containing 10% FBS+1× penn/strep. Cells were seeded in 96-well plates (Corning 3599) at a density of 2e4 cells per well in 80 μL of fresh complete growth medium. Cells were incubated overnight at 37° C., 5% CO2. Compounds were then added to the cell assay plates with a final top concentration of 10 μM in a 1:5 dilution series with a total of 11 doses (0.001 nM-10 μM). The final volume per well was 160 μL and the final DMSO concentration was 0.1%. Additionally, wells containing no cells and only complete growth medium were also maintained on the cell assay plates (‘no cell’ wells) and processed along with experimental wells. After 14 hour-incubation at 37° C., 5% CO2, the medium was removed and the cells were washed once with 100 μL of 1×PBS. Following removal of PBS, 40 μL of 1× Lysis Buffer containing 1× protease and phosphatase inhibitors (Roche 4693116001; Roche 4906837001) were added to each well. The cell assay plate was agitated on a plate shaker at 350 rpm for 10 minutes at room temperature. 10 μL of each cell lysate were transferred to a 384-well plate (PerkinElmer 6007290). 10 μL of control lysates (from PerkinElmer ALSU-TCDK2-A10K kit) were added to separate wells to generate a standard curve. Activation Buffer was prepared by diluting 25-fold in combined Reaction Buffer 1 and Reaction Buffer 2. Acceptor Beads were diluted 50-fold in combined Reaction Buffers. 5 μL of Acceptor Mix were added to each well. The plate was sealed with Topseal-Aadhesive film, covered with foil, and incubated in the dark for 1 hour at room temperature. Under subdued light, the Donor Beads were diluted 50-fold in Dilution Buffer. 5 μL of Donor Mix were added to each well under subdued light. The plate was sealed with Topseal-A adhesive film, covered with foil, and incubated in the dark for 1 hour at room temperature. Under subdued light, the plates were analyzed on an EnVision Microplate Reader (PerkinElmer Model 2009-0030). The average signal from ‘no cell’ wells was subtracted from the signal in experimental wells prior to calculating Alpha signal for test compounds and negative control (0.100 DMSO). The data were analyzed using Xlfit (v5.3. 1.3) and the dose-dependent CDK2 degradation data were fit using a four-parameter logistic model to calculate DC50.

| Structure (SMILES) | CDK2 degradation 14 h: Average Dmax % | DC50 |
| --- | --- | --- |
| Cc1cc(S(=O)(=O)N[C@H](C)CO[C@H]2CC[C@H](CN3CCN(c4ccc5c(c4)n(C)c(=O)n5C4CCC(=O)NC4=O)CC3)CC2)ccc1Nc1ncc(C(F)(F)F)c([C@H]2CC[C@@](C)(O)CC2)n1 (stereo partly shown) | A (A (>75% o)) | < 100 nM |
| Cc1cc(S(=O)(=O)C2CC3(CCN(CC4CCN(c5ccc6c(c5F)n(C)c(=O)n6C5CCC(=O)NC5=O)CC4)CC3)C2)ccc1Nc1ncc2c(n1)N(C1CCCC1)C(=O)CC2 (stereo not shown) | A (A (>75% o)) | < 100 nM |
| Cc1cc(S(=O)(=O)NC(C)COC2CC(CN3CCN(c4cccc5c4n(C)c(=O)n5C4CCC(=O)NC4=O)CC3)C2)ccc1Nc1ncc(C(F)(F)F)c(C2CCC(C)(O)CC2)n1 (stereo not shown) | A (A (>75% o)) | < 100 nM |
| Cc1cc(S(=O)(=O)N[C@H]2CC[C@H](N3CCN(c4ccc(C5CCC(=O)NC5=O)c(Cl)c4)CC3)CC2)ccc1Nc1ncc(C(F)(F)F)c(N2CCC[C@](C)(O)C2)n1 (stereo partly shown) | C (C (>25% -50%)) | > 1000 nM |
| Cc1cc(S(=O)(=O)NC23CCCC(CN4CCN(c5ccc(C6CCC(=O)NC6=O)cc5F)CC4)(C2)C3)ccc1Nc1ncc(C(F)(F)F)c(N2CCC[C@](C)(O)C2)n1 (stereo partly shown) | A (A (>75% o)) | < 100 nM |
| Cc1cc(S(=O)(=O)NC23CCC(CN4CCN(c5ccc(C6CCC(=O)NC6=O)cc5F)CC4)(CC2)OC3)ccc1Nc1ncc(C(F)(F)F)c(N2CCC[C@](C)(O)C2)n1 (stereo partly shown) | A (A (>75% o)) | < 100 nM |
| C[C@]1(O)CCCN(c2nc(Nc3ccc(S(=O)(=O)N[C@H]4CC[C@H](CN5CCN(c6ccc(C7CCC(=O)NC7=O)cc6F)CC5)CC4)cc3F)ncc2C(F)(F)F)C1 (stereo partly shown) | A (A (>75% o)) | < 100 nM |
| Cc1cc(S(=O)(=O)N[C@H]2CC[C@H](CN3CCN(c4ccc(C5CCC(=O)NC5=O)cc4F)C[C@H]3C)CC2)ccc1Nc1ncc(C(F)(F)F)c(N2CCC[C@](C)(O)C2)n1 (stereo partly shown) | A (A (>75% o)) | < 100 nM |
| Cc1cc(S(=O)(=O)N[C@H]2C[C@H](N3CCN(CC#Cc4cccc(N5CCC(=O)NC5=O)c4C)CC3)C2)ccc1Nc1ncc(C(F)(F)F)c(N2CCC[C@](C)(O)C2)n1 | C (C (>25% -50%)) | > 1000 nM |
| Cc1cc(S(=O)(=O)N[C@H](C)CO[C@H]2CC[C@H](CN3CCN(c4ccc5c(c4F)n(C)c(=O)n5C4CCC(=O)NC4=O)CC3)CC2)ccc1Nc1ncc(C(F)(F)F)c([C@H]2CC[C@@](C)(O)CC2)n1 (stereo partly shown) | A (A (>75% o)) | < 100 nM |
| C[C@]1(O)CCCN(c2nc(Nc3ccc(S(=O)(=O)N[C@@H]4CCN(CC5CCN(c6ccc(C7CCC(=O)NC7=O)c(F)c6)CC5)C[C@@H]4F)cc3F)ncc2C(F)(F)F)C1 (stereo partly shown) | A (A (>75% o)) | < 100 nM |
| C[C@]1(O)CCCN(c2nc(Nc3ccc(S(=O)(=O)N[C@H]4CC[C@H](CN5CCN(c6ccc(C7CCC(=O)NC7=O)c(F)c6)CC5)CC4)cc3Cl)ncc2C(F)(F)F)C1 (stereo partly shown) | A (A (>75% o)) | < 100 nM |
| Cc1cc(S(=O)(=O)N[C@H]2CC[C@H](CN3CCN(c4ccc(C5CCC(=O)NC5=O)cc4F)CC3)CC2)ccc1Nc1ncc(C(F)(F)F)c(N2CCC[C@](C)(O)C2)n1 (stereo partly shown) | A (A (>75% o)) | < 100 nM |
| Cc1cc(S(=O)(=O)N[C@@H]2CCN(CC3CCN(c4ccc(C5CCC(=O)NC5=O)c(F)c4)CC3)C[C@@H]2F)ccc1Nc1ncc(C(F)(F)F)c(N2CCC[C@](C)(O)C2)n1 (stereo partly shown) | A (A (>75% o)) | < 100 nM |
| Cc1cc(S(=O)(=O)C2CC3(CCN(Cc4cccc5c4n(C)c(=O)n5C4CCC(=O)NC4=O)CC3)C2)ccc1Nc1ncc(C(F)(F)F)c(N2CCC[C@](C)(O)C2)n1 (stereo partly shown) | D (D (<25%)) | > 1000 nM |
| Cc1cc(S(=O)(=O)N[C@H]2CCN(CC3CCN(c4ccc(C5CCC(=O)NC5=O)c(F)c4)CC3)C[C@@H]2F)ccc1Nc1ncc(C(F)(F)F)c(N2CCC[C@](C)(O)C2)n1 (stereo partly shown) | A (A (>75% o)) | < 100 nM |
| Cc1cc(S(=O)(=O)N[C@H]2CC[C@H](CN3CCN(c4ccc(C5CCC(=O)NC5=O)cc4F)CC3)CC2)ccc1Nc1ncc2c(n1)N([C@@H]1CCC[C@@H](O)C1)C(=O)C21CC1 (stereo partly shown) | A (A (>75% o)) | < 100 nM |
| Cc1cc(S(=O)(=O)NCCOCCNC(=O)COc2ccc(C)c(N3CCC(=O)NC3=O)c2)ccc1Nc1ncc2cc(Cl)c(=O)n(C3CCCC3)c2n1 | C (C (>25% -50%)) | > 1000 nM |

| Structure (SMILES) | CDK2 degradation 14 h: Average Dmax % | DC50 |
| --- | --- | --- |
| Cc1cc(S(=O)(=O)NCCOCCOCC2CCN(c3ccc(N4CCC(=O)NC4=O)cc3)CC2)ccc1Nc1ncc2cc(Cl)c(=O)n(C3CCCC3)c2n1 | B (B (>50% -75%)) | 100 to 500 nM |
| Cc1cc(S(=O)(=O)NCC2(C)CN(C3CCN(c4ccc(C5CCC(=O)NC5=O)c(Cl)c4)CC3)CCO2)ccc1Nc1ncc(C(F)(F)F)c(N2CCC[C@](C)(O)C2)n1 (stereo partly shown) | C (C (>25% -50%)) | > 1000 nM |
| Cn1c(=O)n(C2CCC(=O)NC2=O)c2ccc(CCCOCCOCC(=O)N3CCC(Nc4ncc5cc(C(F)F)c(=O)n([C@@H]6CCC[C@@]6(C)O)c5n4)CC3)cc21 (stereo partly shown) | D (D (<25%)) | > 1000 nM |
| Cc1cc(S(=O)(=O)N[C@H]2CC[C@H](CN3CCC(c4cccc(NC5CCC(=O)NC5=O)c4)CC3)CC2)ccc1Nc1ncc(C(F)(F)F)c(N2CCC[C@](C)(O)C2)n1 (stereo partly shown) | A (A (>75% o)) | < 100 nM |
| Cc1cc(S(=O)(=O)N[C@H]2CC[C@H](CN3CCN(c4ccc(C5CCC(=O)NC5=O)cc4)CC34CC4)CC2)ccc1Nc1ncc(C(F)(F)F)c(N2CCC[C@](C)(O)C2)n1 (stereo partly shown) | A (A (>75% o)) | < 100 nM |
| Cc1cc(S(=O)(=O)N[C@H]2CC[C@H](CN3CCN(c4ccc(NC5CCC(=O)NC5=O)c(Cl)c4)CC3)CC2)ccc1Nc1ncc(C(F)(F)F)c(N2CCC[C@](C)(O)C2)n1 (stereo partly shown) | A (A (>75% o)) | < 100 nM |
| Cc1cc(S(=O)(=O)N[C@H]2CC[C@H](CN3CCC(c4ccc(C5CCC(=O)NC5=O)cc4)C3)CC2)ccc1Nc1ncc(C(F)(F)F)c(N2CCC[C@](C)(O)C2)n1 (stereo partly shown) | B (B (>50% -75%)) | > 1000 nM |
| Cc1cc(S(=O)(=O)C2CC3(CCN(CC4CCN(c5cccc6c5oc(=O)n6C5CCC(=O)NC5=O)CC4)CC3)C2)ccc1Nc1ncc2cc(Cl)c(=O)n(C3CCCC3)c2n1 (stereo not shown) | A (A (>75% o)) | < 100 nM |
| Cc1cc(S(=O)(=O)NCCOCCOCCNC(=O)COc2ccc(C)c(N3CCC(=O)NC3=O)c2)ccc1Nc1ncc2cc(Cl)c(=O)n(C3CCCC3)c2n1 | A (A (>75% o)) | 100 to 500 nM |
| COc1cc(C2CCC(=O)NC2=O)ccc1N1CCN(C[C@H]2CC[C@H](NS(=O)(=O)c3ccc(Nc4ncc(C(F)(F)F)c(N5CCC[C@](C)(O)C5)n4)c(C)c3)CC2)CC1 (stereo partly shown) | A (A (>75% o)) | < 100 nM |
| Cc1cc(S(=O)(=O)N[C@H](C)CO[C@H]2CC[C@H](CN3CC(c4ccc5c(c4F)n(C)c(=O)n5C4CCC(=O)NC4=O)C3)CC2)ccc1Nc1ncc(C(F)(F)F)c(N2CCC[C@](C)(O)C2)n1 (stereo partly shown) | A (A (>75% o)) | < 100 nM |
| Cc1cc(S(=O)(=O)N[C@H]2CC[C@H](CN(C)c3ccc(C4CCC(=O)NC4=O)c(Cl)c3)CC2)ccc1Nc1ncc(C(F)(F)F)c(N2CCC[C@](C)(O)C2)n1 (stereo partly shown) | D (D (<25%)) | > 1000 nM |
| C[C@]1(O)CCCN(c2nc(Nc3ccc(S(=O)(=O)N[C@@H]4CCN(CC5CCN(c6ccc(C7CCC(=O)NC7=O)cc6F)CC5)C[C@@H]4F)cc3F)ncc2C(F)(F)F)C1 (stereo partly shown) | A (A (>75% o)) | < 100 nM |
| Cc1cc(S(=O)(=O)N2CCN(CCCCC#Cc3ccc4c(c3)n(C)c(=O)n4C3CCC(=O)NC3=O)CC2)ccc1Nc1ncc2ccc(=O)n(C3CCCC3)c2n1 (stereo not shown) | B (B (>50% -75%)) | > 1000 nM |
| Cc1cc(S(=O)(=O)CCCCN2CCN(CC3CCN(c4ccc5c(c4)n(C)c(=O)n5C4CCC(=O)NC4=O)CC3)CC2)ccc1Nc1ncc(C(F)(F)F)c(-c2cnn(C)c2)n1 (stereo not shown) | B (B (>50% -75%)) | < 100 nM |
| Cc1cc(S(=O)(=O)NC23CCC(CN4CCN(c5ccc(C6CCC(=O)NC6=O)c(Cl)c5)CC4)(CC2)OC3)ccc1Nc1ncc(C(F)(F)F)c(N2CCC[C@](C)(O)C2)n1 (stereo partly shown) | A (A (>75% o)) | < 100 nM |
| Cc1cc(S(=O)(=O)N[C@H]2CC[C@H](CN3CCN(c4cccc(N[C@H]5CCC(=O)NC5=O)c4F)CC3)CC2)ccc1Nc1ncc(C(F)(F)F)c(N2CCC[C@](C)(O)C2)n1 | A (A (>75% o)) | 100 to 500 nM |
